Target: recombinant murine transferrin receptor 1 (murine) (UniProt Q62351)

- cellular FITC fluorescence of GL261 cells incubated with FITC-labeled NPs, flow cytometry, normalized to cells without treatment (cellular uptake): 7%
Substance: CGKRK fusion protein nanoparticles (CGKRK-linker-HFn) (designed binder)
